Literature values, collected in patent publication CN105130966A, “炔基化合物及其使用方法和用途” (Add And Open Up Scientific Co, priority 2014, dated 2015).

Chains of the proteins cited; added tags and fusions are not shown. Lines headed by an entry give the natural chain unless they say otherwise; changes in a name come on top.
UniProt O00329, whole entry, species assumed: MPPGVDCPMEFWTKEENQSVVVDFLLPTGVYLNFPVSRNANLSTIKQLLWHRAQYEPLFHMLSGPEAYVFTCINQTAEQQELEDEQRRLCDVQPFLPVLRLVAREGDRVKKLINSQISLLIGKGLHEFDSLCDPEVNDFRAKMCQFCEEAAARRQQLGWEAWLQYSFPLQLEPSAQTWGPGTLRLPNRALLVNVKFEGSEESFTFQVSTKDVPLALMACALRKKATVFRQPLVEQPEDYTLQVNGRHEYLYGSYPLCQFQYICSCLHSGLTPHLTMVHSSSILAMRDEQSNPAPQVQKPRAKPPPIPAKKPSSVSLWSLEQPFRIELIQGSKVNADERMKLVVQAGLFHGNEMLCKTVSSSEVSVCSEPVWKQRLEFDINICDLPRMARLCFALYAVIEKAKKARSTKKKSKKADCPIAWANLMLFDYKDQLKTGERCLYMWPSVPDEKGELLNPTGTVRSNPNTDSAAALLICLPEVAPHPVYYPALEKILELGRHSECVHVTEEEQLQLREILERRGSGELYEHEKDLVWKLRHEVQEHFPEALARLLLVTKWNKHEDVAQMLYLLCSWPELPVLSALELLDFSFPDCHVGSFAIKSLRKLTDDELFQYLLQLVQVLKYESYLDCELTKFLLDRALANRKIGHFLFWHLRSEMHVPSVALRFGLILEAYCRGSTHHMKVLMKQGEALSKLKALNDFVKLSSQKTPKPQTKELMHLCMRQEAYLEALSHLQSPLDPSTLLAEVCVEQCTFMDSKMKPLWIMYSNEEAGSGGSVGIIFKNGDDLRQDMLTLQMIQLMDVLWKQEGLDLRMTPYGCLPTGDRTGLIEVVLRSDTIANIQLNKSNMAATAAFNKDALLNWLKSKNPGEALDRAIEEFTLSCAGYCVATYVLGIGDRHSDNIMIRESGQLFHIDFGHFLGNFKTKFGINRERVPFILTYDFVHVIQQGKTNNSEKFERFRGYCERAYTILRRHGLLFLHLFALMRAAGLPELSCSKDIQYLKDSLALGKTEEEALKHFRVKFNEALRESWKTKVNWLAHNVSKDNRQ

Biological target: PI3Kδ (Homo sapiens, UniProt O00329)
Settings: Cell, 2006, 125, 733-747

In the case of `Cc1ccccc1-n1c(Cn2cnc3c(N)ncnc32)nc2cccc(C)c2c1=O` [IC87114], the “inhibition of PI3Kδ” value is listed as “高纳摩尔范围(三位数)”.
